# Ab-95 light chain CDR variants: yeast mating affinities

Source: Engelhart et al. 2022 (doi:10.1038/s41597-022-01779-4), MIT Lincoln Laboratory and A-Alpha Bio; data file from the FLAb repository.

Target peptide (SARS-CoV-2 spike, HR2 region): PDVDLGDISGINAS

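The parent was found by panning a naive human phage display library on the peptide. In library AAYL52, one, two or three CDR residues were substituted; doubles and triples were drawn at random. The assay is AlphaSeq: two haploid yeast populations carry antibody and antigen on their surface. After mating in shaken culture at 30 °C for 16 h, diploids were selected and their barcode pairs sequenced. A regression on co-assayed BCL2-family reference pairs converts the normalised counts of each replicate to an apparent Kd. There are three technical replicates.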

The variants keep the heavy chain, the linker and the frameworks of Ab-95 (scFv order VH, the linker GGGGSGGGGSGGGGS, VL).
VH: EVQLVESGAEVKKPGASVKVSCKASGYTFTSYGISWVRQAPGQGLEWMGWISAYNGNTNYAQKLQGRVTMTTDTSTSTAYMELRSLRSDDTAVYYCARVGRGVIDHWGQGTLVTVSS
VL: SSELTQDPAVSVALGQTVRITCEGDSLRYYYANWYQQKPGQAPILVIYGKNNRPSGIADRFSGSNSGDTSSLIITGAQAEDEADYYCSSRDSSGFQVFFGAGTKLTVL

Variants are written as CDR1, CDR2 and CDR3 of the light chain (limits as in the source). Parent: EGDSLRYYYAN, GKNNRPS, SSRDSSGFQVF. Values are log10 of the apparent Kd in nM; lower means stronger binding. A mean of the replicates is given; it leaves out those without a signal. "not detected" means that the variant was in the library but no mating with the target was seen in any replicate; the authors take this as a sign of poor binding, and no number exists. Entries are sorted by rising average, undetected variants last.

CDR-L1	CDR-L2	CDR-L3	log10 Kd (nM), mean	replicates with signal
EGDSLRYYCAN	GVNNRPS	MSRDSSGFQVF	1.79	3 of 3
ESDSLRYYYAN	GKNNRPM	SVRDSSGFQVF	1.96	3 of 3
EGDSLRYAYAN	GKNNRPS	SSRDSSGFQQF	2.09	3 of 3
EGYDLRYYYAN	GKNNRPS	SSRDSSHFQVF	2.10	3 of 3
EGDSLRYYYAN	GKNNRPS	SSRLSSGRQVM	2.13	3 of 3
EGDSLRYYYAN	GKNNRPS	SCRYSSGFQFF	2.15	3 of 3
TGDSLRYYYAN	GKNGRPS	SSRDSSGFQAF	2.31	3 of 3
EGDSLRYYYAN	GKNNRPS	SIRDHNGFQVF	2.34	3 of 3
NGDSLRYYYAN	GKNNRPS	SWRDCSGFQVF	2.39	3 of 3
EGDSLRYYYAN	GHNNRPS	SSLDSSYFQVF	2.47	3 of 3
AGYSLRYYKAN	GKNNRPS	SSRDSSGFQVF	2.70	3 of 3
EGDSLRYYYAN	GKNNREH	SSRDSSGFQVC	2.78	3 of 3
EGDHLRYYYAN	GKNNRPS	SSRDKAGFQVF	2.81	3 of 3
EGDSLRYYGAN	GKNNRPS	SSADSSPFQVF	2.86	3 of 3
EGDSLRYPHAN	GKNNRPS	SSRDSSGFQVC	2.89	3 of 3
EGDSLEYYYAN	GKNNRPS	SQRCSSGFQVF	2.90	3 of 3
EGDSLRYYYAN	GKNNRPS	SMRDSSGFHVF	2.90	3 of 3
EGYSLRYYYAN	GPNNRPS	SSRDSSGFQPF	2.92	3 of 3
EGDSIRYYAAN	GKNNRPS	LSRDSSGFQVF	3.09	1 of 3
VGDSLRYIYAN	GKNNRPS	SSRDSSGCQVF	3.27	3 of 3
EGDLLRYYYAN	GKNNRPS	SSRDSYGFQVF	3.30	1 of 3
EGDSDRYYYAN	GKNRRPS	SSWDSSGFQVF	3.35	2 of 3
VGQSLRYYYAN	GKNNRPS	SSIDSSGFQVF	3.38	3 of 3
EGDSLAYYYAN	GKPNRPS	SSRDSSGFQVF	3.39	2 of 3
EGDHLRYYYAN	WKNNRPS	SSRTSSGFQVF	3.39	3 of 3
EGDSCRYPYAN	GKNNRPS	SSRDASGFQVF	3.43	1 of 3
EGDSLRYYYAN	GKINRPS	SSRDSSGFRTF	3.52	1 of 3
MGDQLRYYYAN	GKNNRPS	PSRDSSGFQVF	3.53	2 of 3
EFDSLRYYYAA	GKNNRPS	SSRDSSIFQVF	3.55	1 of 3
EGTSLRYYYAN	GINNRPS	SSRDSSGFQDF	3.56	2 of 3
ELDSLRGYYAN	GKNNRPS	SSRYSSGFQVF	3.59	3 of 3
EGDSMRYYYAH	GKNNRPS	SSRDSWGFQVF	3.64	2 of 3
EGDSEIYYYAN	GKNNRPS	SSRDSSEFQVF	3.68	3 of 3
EGDSLRYYYWN	GKNNAPS	SSRDSSGFQIF	3.72	1 of 3
EGDSLRYYYAN	GKNNRPS	SWGDSKGFQVF	3.93	1 of 3
EGDSLRYYYAN	GKCNRPM	SSRDSSGFTVF	3.97	1 of 3
EIDSLRYYRAN	GKNNRPS	SSRTSSGFQVF	4.01	3 of 3
EGDSLRYYYAN	GKNGRYS	SSRDSKGFQVF	4.04	1 of 3
EGCSLRYYYSN	GKNNRPS	SSRDGSGFQVF	4.04	2 of 3
EGDSLRYVYAS	GKNNRPS	SSRDSSGCQVF	4.05	2 of 3
EGDSLRYYYAC	GKNGRPS	SSRSSSGFQVF	4.06	2 of 3
EGDSLRYYYAR	GWNNRPS	SSRDSSGFQVF	4.06	1 of 3
WGDSLRLYYAN	GKNNRPS	SSRDSSHFQVF	4.12	3 of 3
EWDSLRYYYAN	GKNNRPS	SSNDSSGFQVF	4.15	2 of 3
EGGSLRYYYAN	GKNNRKS	SSRDSSGKQVF	4.19	1 of 3
VPDSLRYYYFN	GKNNRPS	SSRDSSGFQVF	4.20	2 of 3
EGDWLRYYYAL	GVNNRPS	SSRDSSGFQVF	4.25	1 of 3
EGDSRRYYYAN	GKNNRPS	SSRDSSNFQVS	4.35	2 of 3
EGDSKGYYYAN	GKNNRPS	SSRDSSGFQDF	4.44	1 of 3
EADMLRYYYAN	GKNNRPS	SSRDSSGKQVF	4.67	2 of 3
EGDSARYYYAY	GKNNRPS	SSRDSSGFQVF	4.68	1 of 3
EGDSLRYYYAN	GKNNFMS	MSRDSSGFQVF	4.69	2 of 3
PGDSLRYYYAN	GKNMRPS	NSRDSSGFQVF	4.78	1 of 3
EQQSLRYYYYN	GKNNRPS	SSRDSSGFQVF	4.79	1 of 3
EGCSLRYYYAA	EKNNRPS	SSRDSSGFQVF	4.79	1 of 3
EGDSLRYYYYN	GKNNRPS	SSRMSSGFQVC	4.82	1 of 3
EGDSLRYYYAN	GKNNVPS	SWRDSSGFYVF	4.89	1 of 3
EGDCLRYYYAN	GKWNRPS	SSRDSNGFQVF	4.99	1 of 3
EGDSLRYYYAN	GKNNRPS	NSPHSSGFQVF	5.29	1 of 3
EGDSLRKYYAN	GRNNRPS	SSRDSSGFQRF	5.51	1 of 3
EGLSLRYYYDN	GKNNRPS	SNRDSSGFQVF	5.52	1 of 3
EPDSLRYYSAN	GKNNCPS	SSRDSSGFQVF	not detected	0 of 3
VGDSLRYYYMN	GKNNEPS	SSRDSSGFQVF	not detected	0 of 3
EGDSLRYYYAN	GIFNRPS	SSRESSGFQVF	not detected	0 of 3
EGDSLRYYYAN	GKNNMPS	NSRDSSGHQVF	not detected	0 of 3
EGDSLRYYYAN	GKNNRRS	SSRDSSCFEVF	not detected	0 of 3
EGDSLRYYYAN	GKNVRPS	SSRDSSKFQHF	not detected	0 of 3
EGDSLRYYYAN	GKKNRPS	SSADSSGFQVK	not detected	0 of 3
EGDYLRYYYAN	NKNNRPS	SSRDSSGIQVF	not detected	0 of 3
EGSSLRRYYAH	GKNNRPS	SSRDSSGFQVF	not detected	0 of 3
SGDSLYYYYAN	GKNNRPS	SSRDFSGFQVF	not detected	0 of 3
EGDSLRYYYAN	GKNNRPS	SRRASSGFQVV	not detected	0 of 3
EGDSLRYYYRI	GKNNRPS	SSRDSSGFQVW	not detected	0 of 3
EGDSRRYYYAP	WKNNRPS	SSRDSSGFQVF	not detected	0 of 3
EGDSLRYYYAN	GQNNDPS	SSRDSSGKQVF	not detected	0 of 3
EGDSLRYYYEN	GKNNRPS	SSRDSSGFQWF	not detected	0 of 3

Top 10 of the variants detected in all replicates, tightest first:

CDR-L1	CDR-L2	CDR-L3	log10 Kd (nM), mean	replicates with signal
EGDSLRYYCAN	GVNNRPS	MSRDSSGFQVF	1.79	3 of 3
ESDSLRYYYAN	GKNNRPM	SVRDSSGFQVF	1.96	3 of 3
EGDSLRYAYAN	GKNNRPS	SSRDSSGFQQF	2.09	3 of 3
EGYDLRYYYAN	GKNNRPS	SSRDSSHFQVF	2.10	3 of 3
EGDSLRYYYAN	GKNNRPS	SSRLSSGRQVM	2.13	3 of 3
EGDSLRYYYAN	GKNNRPS	SCRYSSGFQFF	2.15	3 of 3
TGDSLRYYYAN	GKNGRPS	SSRDSSGFQAF	2.31	3 of 3
EGDSLRYYYAN	GKNNRPS	SIRDHNGFQVF	2.34	3 of 3
NGDSLRYYYAN	GKNNRPS	SWRDCSGFQVF	2.39	3 of 3
EGDSLRYYYAN	GHNNRPS	SSLDSSYFQVF	2.47	3 of 3

Nonspecific signal, from three strains lacking the peptide, appeared in 28% of pairings of library AAYL52, centred on 3.91 (5% of these signals below 2.90); values are not corrected for it.